Sequences of proteins named here, by UniProt entry; tags and fusion partners are left off.
UniProt P41145, whole entry: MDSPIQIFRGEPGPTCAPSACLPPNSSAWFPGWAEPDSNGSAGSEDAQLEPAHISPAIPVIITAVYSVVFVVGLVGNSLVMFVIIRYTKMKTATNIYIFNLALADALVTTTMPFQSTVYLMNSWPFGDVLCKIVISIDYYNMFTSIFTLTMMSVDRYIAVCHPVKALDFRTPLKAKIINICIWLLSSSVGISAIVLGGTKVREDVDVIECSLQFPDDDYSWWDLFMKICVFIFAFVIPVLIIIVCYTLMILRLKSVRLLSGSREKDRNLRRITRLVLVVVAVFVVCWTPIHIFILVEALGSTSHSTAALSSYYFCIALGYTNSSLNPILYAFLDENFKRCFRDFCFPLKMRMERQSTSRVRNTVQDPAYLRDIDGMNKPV
UniProt P35372, whole entry: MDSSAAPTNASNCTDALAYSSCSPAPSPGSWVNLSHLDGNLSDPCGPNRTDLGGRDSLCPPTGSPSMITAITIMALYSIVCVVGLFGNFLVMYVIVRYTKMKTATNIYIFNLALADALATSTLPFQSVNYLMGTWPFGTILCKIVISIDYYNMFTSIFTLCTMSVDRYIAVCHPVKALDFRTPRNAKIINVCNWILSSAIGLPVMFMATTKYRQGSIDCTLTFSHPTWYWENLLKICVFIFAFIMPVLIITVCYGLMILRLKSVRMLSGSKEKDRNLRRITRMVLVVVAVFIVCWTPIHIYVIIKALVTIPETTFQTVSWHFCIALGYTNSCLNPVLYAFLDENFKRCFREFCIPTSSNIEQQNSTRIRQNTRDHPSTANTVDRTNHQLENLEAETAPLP
UniProt P41143, whole entry: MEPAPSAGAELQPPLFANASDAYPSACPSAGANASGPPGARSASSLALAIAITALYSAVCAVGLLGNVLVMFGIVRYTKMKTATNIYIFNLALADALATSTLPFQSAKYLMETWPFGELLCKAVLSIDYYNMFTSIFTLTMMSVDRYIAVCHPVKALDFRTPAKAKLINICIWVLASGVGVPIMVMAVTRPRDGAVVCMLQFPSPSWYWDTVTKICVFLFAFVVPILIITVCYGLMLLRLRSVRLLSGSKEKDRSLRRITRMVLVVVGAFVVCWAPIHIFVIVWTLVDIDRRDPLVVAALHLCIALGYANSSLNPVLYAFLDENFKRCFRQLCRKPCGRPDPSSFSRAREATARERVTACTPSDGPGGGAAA

In BindingDB's records for 25268943:

Assays:
[1] = molecular target: Kappa-type opioid receptor (Homo sapiens, UniProt P41145); experiment: Displacement of [3H]U-69593 from human KOR expressed in HEK293 cells after 60 mins by scintillation counting analysis
[2] = molecular target: Mu-type opioid receptor (Homo sapiens, UniProt P35372); experiment: Displacement of [3H]DAMGO from human MOR expressed in HEK293 cells after 60 mins by scintillation counting analysis
[3] = molecular target: Delta-type opioid receptor (Homo sapiens, UniProt P41143)

N=C(N)NCCC[C@H](N)C(=O)NCC1(Nc2ccccc2)CCN(Cc2ccccc2)CC1
Ki [1]: 4.8 nM
Ki [2]: 3.4 nM
Ki [3]: 37 nM
